# In patent publication US5874464A, “Conformationally constrained diacylglycerol analogues” (The United States of America as represented by the …, priority 1995, dated 1999):
# Like-named read-outs stand apart in the source and are kept apart here.
# Target: T1, PK-C α (Homo sapiens, UniProt P17252)
# T1 construct: made in house
# Assay: displacement of bound [3H-20]-phorbol-12,13-dibutyrate (PDBU) from single recombinant isozyme PK-C α
# Conditions: read-out: Apparent Ki for ligands as inhibitors of PDBU binding to PK-C
# Procedure: This recombinant PK-C α was expressed in baculovirus and isolated as described by Kazanietz et al. (Mol. Pharmacol. 44: 298-307 (1993)).
# The affinity of these ligands for PK-C was assessed in terms of their ability to displace bound [^3 H-20]-phorbol-12,13-dibutyrate (PDBU) from a purified product containing the single isozyme PK-C α.
# [1] = Table II, racemic and chiral compounds
Compound,Ki [1] [nM],Ki (Table I) [nM]
CCCCCCCC/C=C\CCCCCCC/C=C1/C[C@@](CO)(COC(C)=O)OC1=O,11 ± 0.3,–
CCCCCCCC/C=C\CCCCCCC/C=C1\CC(CO)(COC(C)=O)OC1=O (stereo not drawn),28 ± 2.19,–
"CCCCCCCC/C=C\CCCCCCC/C=C1\CC(CO)(COC(C)=O)OC1=O (racemic) [Compound 11f, rac-(E)-5-(acetyloxymethyl)5-(hydroxymethyl)-3-[(Z)-9-octadecenoylidene]-tetrahydro-2-furanone]",–,28 ± 2.19
